Source: patent US20040161391A1, “Ascorbic acid compounds as bleaching agents” (L'OREAL, priority 2002, published 2004)

Experiment: Cytotoxicity by estimating the incorporation of leucine
Format: cell-based
Description: The following were determined for each test compound:
the cytotoxicity, by estimating the incorporation of leucine, […]

**Q.** Which Cytotoxicity does the source give for “methyl 2,3-bis-acetate of ascorbic acid [Compound T1]” here?
**A.** No
